# Data reported in patent publication EP4075981B1, “COMPOSITION FOR LICE CONTROL” (dated 2026).
# Columns and labels:
# [1] = Pharmacokinetic study in sheep off-shears (topical, oral and subcutaneous administration); conditions: 3 mg/kg bw
# [2] = test system: sheep body lice (Bovicola ovis); experiment: Example 4: persistency determination (lice challenge after a single oral dose); conditions: for lice or viable lice eggs found on the sheep: 2 months wool, after either challenge (Day 0-7 or Day 7-14 post-treatment), 14, 21, 42 and 84 days ± 1 day post-challenge
# [3] = test system: sheep body lice (Bovicola ovis); experiment: Example 3: efficacy of a single oral dose against lice on long wool sheep; conditions: for efficacy (lice counts): by 14 days post-treatment at each wool length (3, 6 and 9 months of wool growth); for viable lice eggs: from Day 42 at the 6- and 9-months wool lengths
# [4] = test system: sheep body lice (Bovicola ovis); experiment: Example 1: efficacy of a single oral dose against lice on sheep with 9 months wool growth; conditions: for Percentage Efficacy (lice counts, Henderson-Tilton): diazinon resistant lice, by 13 days post-treatment, maintained until Day 140; for viable lice eggs: from Day 41 until last count on Day 140
# [5] = test system: sheep body lice (Bovicola ovis); experiment: Example 2: efficacy of a single oral dose against lice on sheep off-shears
# [6] = dogs, oral administration, 1 mg/kg bw; cited from earlier work
structure (smiles),measurement,setting,value
Cc1cc(C2=NO[C@@](c3cc(Cl)cc(Cl)c3)(C(F)(F)F)C2)ccc1C(=O)NCC(=O)NCC(F)(F)F,peak of mean S-fluralaner plasma concentration,[1]; oral (Group 3),ca. 100 ng/mL
same,concentration of all sheep/individuals,"[1]; oral, by 21 days post-dosing",below the LLOQ
Cc1cc(C2=NOC(c3cc(Cl)cc(Cl)c3)(C(F)(F)F)C2)ccc1C(=O)NCC(=O)NCC(F)(F)F (centres unmarked),lice or viable lice eggs found on the sheep,[2]; 1.5 mg/kg once orally,No lice or viable lice eggs were found
same,lice or viable lice eggs found on the sheep,[2]; 2.0 mg/kg once orally,No lice or viable lice eggs were found
same,no lice infestation is established on the treated sheep for,"[2]; one oral treatment, challenged with lice within 2 weeks after administration (summary of Example 4)",more than 12 weeks
same,efficacy (lice counts),[3]; 1.5 mg/kg once orally,100%
same,viable lice eggs,[3]; 1.5 mg/kg once orally,no viable lice eggs detected
same,efficacy (lice counts),[3]; 2.0 mg/kg once orally,100%
same,viable lice eggs,[3]; 2.0 mg/kg once orally,no viable lice eggs detected
same,"Percentage Efficacy (lice counts, Henderson-Tilton)",[4]; 2 mg/kg once orally,100%
same,viable lice eggs,[4]; 2 mg/kg once orally,no viable lice eggs detected
same,"Percentage Efficacy (lice counts, Henderson-Tilton)",[4]; 3 mg/kg once orally,100%
same,viable lice eggs,[4]; 3 mg/kg once orally,no viable lice eggs detected
same,AUC,"[1]; Group 3 (oral), compared with topical and SC",Higher
same,fluralaner levels in sheep blood,"[1]; oral, by day 12 post-dosing",below 1 ng/mL
same,efficacy (lice counts),"[5]; 0.5 mg/kg once orally, 7 days post-treatment",above 99%
same,efficacy (lice counts),"[5]; 0.5 mg/kg once orally, by 14 days post-treatment until final count on Day 112",100%
same,viable lice eggs,"[5]; 0.5 mg/kg once orally, from Day 21 until final count on Day 112",no viable lice eggs detected
same,efficacy (lice counts),"[5]; 1.0 mg/kg once orally, by 7 days post-treatment",100%
same,efficacy (lice counts),"[5]; 1.0 mg/kg once orally, by 14 days post-treatment until final count on Day 112",100%
same,viable lice eggs,"[5]; 1.0 mg/kg once orally, from Day 21 until final count on Day 112",no viable lice eggs detected
same,efficacy (lice counts),"[5]; 1.5 mg/kg once orally, by 7 days post-treatment",100%
same,efficacy (lice counts),"[5]; 1.5 mg/kg once orally, by 14 days post-treatment until final count on Day 112",100%
same,viable lice eggs,"[5]; 1.5 mg/kg once orally, from Day 21 until final count on Day 112",no viable lice eggs detected
same,efficacy (lice counts),"[5]; 2.0 mg/kg once orally, by 7 days post-treatment",100%
same,efficacy (lice counts),"[5]; 2.0 mg/kg once orally, by 14 days post-treatment until final count on Day 112",100%
same,viable lice eggs,"[5]; 2.0 mg/kg once orally, from Day 14 until final count on Day 112",no viable lice eggs detected
same,viable lice eggs,"[5]; 2.0 mg/kg once orally, from Day 21 until final count on Day 112",no viable lice eggs detected
same,effective blood levels obtained for,[6],at least 56 days
